Drawing on patent publication US12570666B2, “Furoindazole derivatives” (Bayer Aktiengesellschaft, priority 2019, dated 2026), this text covers IC50 for five compounds.

Protein sequences, listed by entry. Tags and fused reporters are not part of them.
UniProt Q9NQS5, whole entry: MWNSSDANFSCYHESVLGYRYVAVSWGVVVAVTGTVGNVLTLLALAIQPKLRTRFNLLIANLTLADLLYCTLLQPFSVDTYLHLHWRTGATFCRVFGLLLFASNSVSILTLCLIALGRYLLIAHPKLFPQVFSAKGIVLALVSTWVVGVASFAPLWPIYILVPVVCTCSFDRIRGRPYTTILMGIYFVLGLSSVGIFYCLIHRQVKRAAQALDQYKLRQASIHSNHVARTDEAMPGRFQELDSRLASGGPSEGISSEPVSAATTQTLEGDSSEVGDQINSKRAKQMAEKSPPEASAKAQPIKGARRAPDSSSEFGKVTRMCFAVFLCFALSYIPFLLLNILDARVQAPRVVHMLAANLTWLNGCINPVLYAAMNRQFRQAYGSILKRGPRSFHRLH

The target in the experiment is human GPR84 receptor (Homo sapiens, UniProt Q9NQS5). Description: cAMP HTRF assay for identification of cellular GPR84 antagonists. Conditions: read-out: GPR84 IC50; CHO-K1 cells stably expressing human GPR84; Forskolin + agonist 6-OAU (EC80); average or median values. The text has this:
cAMP HTRF® Assay for Identification of Cellular GPR84 Antagonists
By using a Homogenous Time-Resolved Fluorescence (HTRF®) based assay (#62AM5PEJ, Cisbio, Condolet, France) the inhibition of the Gi-coupled GPR84 receptor can be detected. CHO-K1 cells stably expressing human GPR84 receptor (purchased from DiscoveRx, now Eurofins) were used and treated with Forskolin (F6886, Sigma, Germany) to stimulate membrane adenylyl cyclases and thereby unspecific cAMP formation. Activation of the Gi-coupled GPR84 by a natural or small molecule agonist (e.g. 6-n-octyl aminouracile, inhouse) results in inhibition of cellular cAMP formation which can be released again by antagonists to this receptor. Detection and quantification of cellular cAMP levels in this HTRF assay is achieved by interaction between a fluorescent cAMP tracer (cAMP-d2) and an Eu-cryptate labelled anti-cAMP antibody. Following excitation at 337 nm this pairing allows for the generation of a fluorescence resonance energy transfer (FRET) between the partners and results in FRET induced emissions at 665 nm and 620 nm, the latter representing background signal by Eu-cryptate labelled anti-cAMP antibody. Maximal signal is obtained in the absence of any cellular cAMP (no competition for the binding of the tracer to the antibody). Given the combination of the Gi coupling properties of GPR84 and the competitive nature of the detection system agonist treatment should result in an increase in the HTRF signal due to lowered cAMP levels. Any signal decrease in the presence of Forskolin, agonist and compound is indicative of antagonist mediated abrogation of GPR84 signalling.
For the assay, frozen aliquots of CHO-K1 cells expressing hGPR84 (prepared by acCELLerate, Hamburg, Germany) were thawed and a cell suspension (1.67E+06 cells/mL) in assay media (Ham's F12 Nutrient Mix, Thermo Fisher Scientific, Waltham, USA; 5% fetal calf serum, Biomol, Hamburg, Germany) containing cAMP-d2 (dilution 1:20, supplied with the kit #62AM5PEJ, Cisbio, Condolet, France) was prepared. After recovery of cells for 20 minutes at 37° C., 3 μL/well cell suspension including cAMP-d2 were added to a pre-dispensed assay plate (Greiner Bio-One, Kremsmuenster, Austria) containing 50 nl/well test compound in 100% DMSO or 100% DMSO as control. This was followed by a 30 minutes incubation step at room temperature. The stimulation time was started by addition of 2 μL/well assay media containing 2.5×EC80 agonist 6-OAU and 2.5×EC90 Forskolin (negative control: 2.5×EC90 Forskolin in assay media) and was continued for 30 minutes at room temperature. The reaction was stopped by addition of 3 μL/well lysis buffer containing cAMP Eu-Cryptate antibody (dilution 1:20) (both supplied with the kit #62AM5PEJ, Cisbio, Condolet, France). To enable complete lysis, plates were incubated for 60 minutes at room temperature before measurement in an HTRF reader, e.g. a PHERAstar (BMG Labtech, Ortenberg, Germany).
From the fluorescence emissions at 665 nm (FRET) and at 620 nm (background signal of Eu-cryptate) the ratio (emission at 665 nm divided by emission at 620 nm×10000) was calculated and the data were normalized (reaction without test compound, only 100% DMSO=0% inhibition; all other assay components except agonist=100% inhibition). […]
As for `Cc1ccc(CNC(=O)c2oc3c(c2C)-c2nn(CC4COc5ncccc5O4)cc2CC3)cc1` (single isomer, unassigned) [53-2], the IC50 worked out at 72 nM.

For `Cc1ccc(CNC(=O)c2oc3c(c2C)-c2nn(CC4COc5ncccc5O4)cc2CC3)cc1` (single isomer, unassigned) [53-1], the IC50 turned out to be 22 nM.

With `Cc1c(C(=O)NC[C@@H]2CCCO2)oc2c1-c1nn(Cc3cncc(F)c3)cc1CC2`, the IC50 was determined as 213 nM.

Take `Cc1c(C(=O)NC[C@@H]2COCCO2)oc2c1-c1nn(Cc3cccnc3)cc1C1(CC1)C2`: the IC50 was 12 nM.

As to `Cc1c(C(=O)NC[C@@H]2CCCO2)oc2c1-c1nn(Cc3cccnc3)cc1C1(CC1)C2`, the IC50 was determined as 9 nM.

Broadly, the IC50 is the concentration needed to halve the response being measured.
